# Only a part is listed here, and it is no random draw. The source made the active and inactive calls.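 Rule for the calls: active = fitted rise in melting shift crosses a set limit at or below the top valid dose tested; inconclusive = flat fit at mid-level activity, or a poor quality fit; inactive = the rest.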
# By UniProt entry, the sequences of proteins in these tests, tags left out. Where a name states a change or a piece, a line headed by the entry shows the natural chain unless it says otherwise.
# UniProt Q9HCT0: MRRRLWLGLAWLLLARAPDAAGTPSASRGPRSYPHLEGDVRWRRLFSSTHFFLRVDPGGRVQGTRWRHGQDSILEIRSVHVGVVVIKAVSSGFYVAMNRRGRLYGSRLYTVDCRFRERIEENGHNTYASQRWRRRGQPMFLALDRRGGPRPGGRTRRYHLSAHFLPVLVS
# Target: Fibroblast growth factor 22 (Homo sapiens) (UniProt Q9HCT0)
# Assay: binders of human FGF22 protein, dose response, FGF22 synaptogenesis inhibitor project, biophysical, thermal shift, cherry-pick retest (AID 720646)
# Conditions: recombinant FGF22 thermal shift, SYPRO orange fluorescence; at 38 µM (top of the series)
row,Structure (SMILES),thermal shift activity
1,Nc1ccc(CCCCOc2ccccc2)cc1,inactive: 0.267%
